Molecular target: T1, soybean ATP sulfurylase isoform 1 (GmATPS1) (Glycine max, UniProt Q8SAG1)
T1 sequence (Q8SAG1 49-462): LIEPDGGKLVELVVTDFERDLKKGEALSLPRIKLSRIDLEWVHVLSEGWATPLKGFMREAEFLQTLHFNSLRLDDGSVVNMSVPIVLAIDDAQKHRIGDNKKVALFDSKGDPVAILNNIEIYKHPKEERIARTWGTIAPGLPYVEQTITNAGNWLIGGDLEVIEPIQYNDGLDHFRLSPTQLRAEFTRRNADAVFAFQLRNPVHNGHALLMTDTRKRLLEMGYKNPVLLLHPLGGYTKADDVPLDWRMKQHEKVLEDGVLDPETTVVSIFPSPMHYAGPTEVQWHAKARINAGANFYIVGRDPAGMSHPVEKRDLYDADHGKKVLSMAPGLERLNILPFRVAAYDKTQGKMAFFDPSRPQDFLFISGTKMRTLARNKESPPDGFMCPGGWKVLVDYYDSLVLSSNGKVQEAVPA
Test: biochemical

## Nc1ncnc2c1ncn2[C@@H]1O[C@H](COP(=O)(O)OS(=O)(=O)O)[C@@H](O)[C@H]1O [APS]
  Kd: 440 ± 20 nM

From publication PMC3728988, “Kinetic mechanism of the dimeric ATP sulfurylase from plants” (Bioscience Reports, 2013)
